Reference: US10280170B2, “Substituted 4,5,6,7-tetrahydro-pyrazolo[1,5-a]pyrazine derivatives and 5,6,7,8-tetrahydro-4H-pyrazolo[1,5-a][1,4]diazepine derivatives as Ros1 inhibitors” (Janssen Pharmaceutica NV, priority 2014, dated 2019)

The chains behind the UniProt entries cited, without tags or fusion partners. Residues count along the entry.
UniProt P08922, whole entry: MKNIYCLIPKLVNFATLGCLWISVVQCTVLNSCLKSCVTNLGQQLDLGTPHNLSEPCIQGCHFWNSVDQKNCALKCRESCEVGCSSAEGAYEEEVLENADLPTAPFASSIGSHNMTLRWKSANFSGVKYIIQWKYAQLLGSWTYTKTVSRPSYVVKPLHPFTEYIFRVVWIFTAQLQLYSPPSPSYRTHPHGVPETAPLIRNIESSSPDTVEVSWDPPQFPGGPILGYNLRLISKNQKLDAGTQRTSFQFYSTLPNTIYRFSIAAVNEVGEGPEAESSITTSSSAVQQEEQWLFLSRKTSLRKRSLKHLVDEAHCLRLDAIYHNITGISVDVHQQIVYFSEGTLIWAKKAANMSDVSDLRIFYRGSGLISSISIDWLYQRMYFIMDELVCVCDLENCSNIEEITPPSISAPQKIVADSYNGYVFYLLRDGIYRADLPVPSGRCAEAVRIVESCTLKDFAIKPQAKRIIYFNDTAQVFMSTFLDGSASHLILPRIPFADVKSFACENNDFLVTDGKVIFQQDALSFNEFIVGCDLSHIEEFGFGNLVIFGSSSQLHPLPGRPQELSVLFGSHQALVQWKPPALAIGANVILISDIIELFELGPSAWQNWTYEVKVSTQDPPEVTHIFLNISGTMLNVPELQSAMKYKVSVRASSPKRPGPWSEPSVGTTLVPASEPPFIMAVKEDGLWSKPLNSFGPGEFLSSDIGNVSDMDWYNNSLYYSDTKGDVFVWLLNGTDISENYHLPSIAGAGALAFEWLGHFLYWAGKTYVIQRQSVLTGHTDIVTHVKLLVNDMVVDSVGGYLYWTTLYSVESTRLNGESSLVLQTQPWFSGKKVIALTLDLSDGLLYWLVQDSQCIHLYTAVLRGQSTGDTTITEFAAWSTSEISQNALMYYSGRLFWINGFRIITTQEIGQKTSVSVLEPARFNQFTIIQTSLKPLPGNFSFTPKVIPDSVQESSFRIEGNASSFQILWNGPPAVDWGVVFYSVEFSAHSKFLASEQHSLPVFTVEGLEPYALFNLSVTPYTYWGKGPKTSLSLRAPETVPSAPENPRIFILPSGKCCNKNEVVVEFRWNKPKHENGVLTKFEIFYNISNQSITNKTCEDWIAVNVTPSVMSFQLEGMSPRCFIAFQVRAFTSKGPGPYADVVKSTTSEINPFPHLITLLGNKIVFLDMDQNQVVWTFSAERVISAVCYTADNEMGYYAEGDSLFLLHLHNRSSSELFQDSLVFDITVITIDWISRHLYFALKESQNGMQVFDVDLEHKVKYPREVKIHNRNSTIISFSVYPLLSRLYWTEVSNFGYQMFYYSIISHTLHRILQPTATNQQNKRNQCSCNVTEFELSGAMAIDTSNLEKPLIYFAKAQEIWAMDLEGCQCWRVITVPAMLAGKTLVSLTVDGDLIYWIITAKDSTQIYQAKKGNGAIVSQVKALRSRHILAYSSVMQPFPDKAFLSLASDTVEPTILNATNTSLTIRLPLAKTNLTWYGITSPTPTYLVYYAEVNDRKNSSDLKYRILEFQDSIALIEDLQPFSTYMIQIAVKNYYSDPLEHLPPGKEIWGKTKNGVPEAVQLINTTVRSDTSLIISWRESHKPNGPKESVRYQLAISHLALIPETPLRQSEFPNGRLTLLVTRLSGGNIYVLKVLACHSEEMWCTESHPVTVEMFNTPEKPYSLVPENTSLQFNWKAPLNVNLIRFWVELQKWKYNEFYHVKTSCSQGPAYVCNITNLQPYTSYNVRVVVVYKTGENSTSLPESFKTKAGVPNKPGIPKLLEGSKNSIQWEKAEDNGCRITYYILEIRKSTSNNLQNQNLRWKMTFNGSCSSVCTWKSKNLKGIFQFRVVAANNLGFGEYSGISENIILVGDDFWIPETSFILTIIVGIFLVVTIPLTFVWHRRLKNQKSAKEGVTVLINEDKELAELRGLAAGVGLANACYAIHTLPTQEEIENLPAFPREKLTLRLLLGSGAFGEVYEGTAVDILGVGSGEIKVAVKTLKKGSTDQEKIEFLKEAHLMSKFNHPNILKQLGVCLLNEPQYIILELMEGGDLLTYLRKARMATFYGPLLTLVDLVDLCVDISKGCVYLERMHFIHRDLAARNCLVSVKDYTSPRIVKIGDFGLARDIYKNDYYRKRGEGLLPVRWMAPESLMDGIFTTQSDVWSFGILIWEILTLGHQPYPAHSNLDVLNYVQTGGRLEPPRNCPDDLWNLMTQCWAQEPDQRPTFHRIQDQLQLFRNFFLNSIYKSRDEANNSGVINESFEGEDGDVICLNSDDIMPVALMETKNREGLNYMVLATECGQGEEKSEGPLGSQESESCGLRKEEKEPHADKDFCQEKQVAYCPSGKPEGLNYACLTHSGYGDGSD
UniProt P08922, 28-2347 limits assumed: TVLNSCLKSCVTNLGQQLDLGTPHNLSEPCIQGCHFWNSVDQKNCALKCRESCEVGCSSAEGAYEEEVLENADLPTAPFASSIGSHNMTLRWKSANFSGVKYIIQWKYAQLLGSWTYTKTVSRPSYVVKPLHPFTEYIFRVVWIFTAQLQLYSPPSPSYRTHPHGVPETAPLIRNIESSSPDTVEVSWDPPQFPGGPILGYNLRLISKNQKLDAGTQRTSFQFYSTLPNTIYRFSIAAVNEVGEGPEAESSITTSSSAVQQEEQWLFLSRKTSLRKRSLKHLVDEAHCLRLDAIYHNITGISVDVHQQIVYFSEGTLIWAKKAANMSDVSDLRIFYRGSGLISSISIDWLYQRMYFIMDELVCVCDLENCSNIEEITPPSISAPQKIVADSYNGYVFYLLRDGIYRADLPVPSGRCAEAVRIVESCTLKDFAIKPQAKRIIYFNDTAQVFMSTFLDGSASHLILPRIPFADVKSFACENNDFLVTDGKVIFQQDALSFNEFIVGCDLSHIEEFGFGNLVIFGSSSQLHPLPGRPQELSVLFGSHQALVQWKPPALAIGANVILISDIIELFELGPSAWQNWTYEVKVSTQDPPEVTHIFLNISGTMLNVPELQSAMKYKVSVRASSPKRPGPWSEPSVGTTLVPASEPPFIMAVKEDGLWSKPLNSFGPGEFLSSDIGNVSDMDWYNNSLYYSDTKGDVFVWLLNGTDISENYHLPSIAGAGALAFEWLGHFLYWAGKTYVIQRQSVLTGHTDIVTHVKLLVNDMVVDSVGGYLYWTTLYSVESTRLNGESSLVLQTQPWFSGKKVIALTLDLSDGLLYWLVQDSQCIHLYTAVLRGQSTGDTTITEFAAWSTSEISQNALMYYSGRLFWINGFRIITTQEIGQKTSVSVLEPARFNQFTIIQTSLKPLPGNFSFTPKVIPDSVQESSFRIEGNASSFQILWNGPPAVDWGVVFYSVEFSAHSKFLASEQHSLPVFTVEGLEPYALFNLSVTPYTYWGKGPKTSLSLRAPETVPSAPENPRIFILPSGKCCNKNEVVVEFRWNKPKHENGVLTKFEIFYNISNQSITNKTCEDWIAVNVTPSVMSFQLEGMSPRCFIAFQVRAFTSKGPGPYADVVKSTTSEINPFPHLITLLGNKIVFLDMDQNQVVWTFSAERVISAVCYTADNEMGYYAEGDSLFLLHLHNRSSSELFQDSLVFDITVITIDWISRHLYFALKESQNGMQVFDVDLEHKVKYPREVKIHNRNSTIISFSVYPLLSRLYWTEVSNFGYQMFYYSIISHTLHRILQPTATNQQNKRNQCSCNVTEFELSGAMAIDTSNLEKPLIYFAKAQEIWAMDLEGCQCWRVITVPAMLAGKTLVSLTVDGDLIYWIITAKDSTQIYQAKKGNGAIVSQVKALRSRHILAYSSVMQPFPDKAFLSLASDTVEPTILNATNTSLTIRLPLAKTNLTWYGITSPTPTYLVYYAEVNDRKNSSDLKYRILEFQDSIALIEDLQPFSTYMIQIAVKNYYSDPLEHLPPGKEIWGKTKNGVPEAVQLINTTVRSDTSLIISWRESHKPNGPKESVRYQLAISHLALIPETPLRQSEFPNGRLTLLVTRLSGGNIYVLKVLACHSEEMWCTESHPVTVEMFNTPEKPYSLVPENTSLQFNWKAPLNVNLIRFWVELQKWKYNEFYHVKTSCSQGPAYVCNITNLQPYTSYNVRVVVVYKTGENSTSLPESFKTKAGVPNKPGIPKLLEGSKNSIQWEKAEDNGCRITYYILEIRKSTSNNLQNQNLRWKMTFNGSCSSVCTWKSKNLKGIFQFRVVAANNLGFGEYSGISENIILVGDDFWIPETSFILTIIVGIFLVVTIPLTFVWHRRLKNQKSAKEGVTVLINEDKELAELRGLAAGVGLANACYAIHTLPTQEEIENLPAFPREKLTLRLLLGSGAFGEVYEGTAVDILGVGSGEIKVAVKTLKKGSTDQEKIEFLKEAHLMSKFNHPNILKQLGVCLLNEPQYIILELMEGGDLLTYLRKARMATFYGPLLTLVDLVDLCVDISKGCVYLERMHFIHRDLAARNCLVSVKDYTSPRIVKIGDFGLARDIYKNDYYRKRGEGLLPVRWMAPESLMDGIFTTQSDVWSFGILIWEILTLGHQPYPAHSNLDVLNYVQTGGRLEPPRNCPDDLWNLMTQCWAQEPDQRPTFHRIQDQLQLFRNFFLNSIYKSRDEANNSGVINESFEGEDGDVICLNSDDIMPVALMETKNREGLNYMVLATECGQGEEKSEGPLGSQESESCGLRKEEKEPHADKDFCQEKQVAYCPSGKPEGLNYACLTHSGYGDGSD

Legend:
Ros1 enzyme = Ros1 enzyme (Homo sapiens, UniProt P08922); test: Ros1 enzymatic assay; format: biochemical
Experimental: Compounds were spotted onto white 384-well Proxiplate plus plates (Perkin Elmer) to which 5 μl of enzyme mix (0.5 μg/ml Ros1 enzyme, 50 mM Tris-HCl pH7.5, 1 mM EGTA, 10 mM MgCl2, 0.01% Tween-20) and 5 μl of substrate mix (6 μg/ml IRS-Tide [American Peptide Company], 20 μM ATP, 13.33 μCi/ml ATP (adenosine 5′-triphosphate) P^33, 50 mM Tris-HCl pH7.5, 1 mM EGTA (ethylene glycol-bis(2-aminoethylether)-N,N,N′,N′-tetraacetic acid), 10 mM MgCl2, 0.01% Tween-20) were added. After incubation for 120 minutes at room temperature, 10 μl of stop reaction buffer (5 mM EDTA, 50 μM ATP, 0.1% BSA (bovine serum albumin), 0.1% Triton X-100, 50 mM Tris-HCl pH7.5, 1 mM EGTA, 10 mM MgCl2, 0.01% Tween-20) containing 2 mg/ml streptavidin coupled polystyrene imaging beads (Amersham Biosciences) was added and incubated for 15 minutes at room temperature. Plates were centrifuged for 3 minutes at 1500 rpm and signals detected in a LEADseeker imaging system (GE).

[1] = test system: Ba/F3 cells containing Ros1 wild-type protein + IL-3; test: Ba/F3-Ros1 cell proliferation counter-screen, wild-type protein in the presence of 10 ng/ml murine IL-3; format: cell-based
Experimental: (§1) This assay was carried out with Ba/F3 cells containing three different versions of Ros1: the wild-type protein, protein with a mutation at the gatekeeper residue (L2026M), and protein with a mutation identified in a tumor from a patient that became resistant to crizotinib (Xalkori®) treatment (G2032R). Compounds were solubilized in 100% DMSO (dimethyl sulfoxide) and sprayed into polystyrene, tissue culture treated 384-well plates. A 50 μl volume of cell culture medium (phenol red free RPMI-1640, 10% FBS (fetal bovine serum), 2 mM L-Glutamine) containing 20000 Ba/F3-Ros1 cells was added to each well and the plates were placed in an incubator at 37° C. and 5% CO2. After 24 hours, 10 μl of Alamar Blue solution (0.5 mM K3Fe(CN)6, 0.5 mM K4Fe(CN)6, 0.15 mM Resazurin and 100 mM Phosphate Buffer) was added to the wells, incubated for 4 hours at 37° C. and 5% CO2 before RFU's (Relative Fluorescence Units) (ex. 540 nm., em. 590 nm.) were measured in a fluorescence plate reader.
As a counter-screen the same experiment was performed for the wild-type protein in the presence of 10 ng/ml murine IL-3.

[2] = target: Ba/F3 cells containing Ros1 wild-type protein (Homo sapiens, UniProt P08922, cells depend on it, form not given); test: Ba/F3-Ros1 cell proliferation assay, wild-type Ros1; format: cell-based, murine; details: without IL-3
Experimental: Ba/F3-Ros1 Cell Proliferation Assay
as §1

CC(C)(C)OC(=O)NCc1cccc(COc2ccc(-c3c(-c4ccncc4)nn4c3C(=O)NCC4)cc2)c1
ROS1 pIC50 (Ros1 enzyme): 5.4
BaF3-ROS1 + IL3 pIC50 [1]: <5
BaF3-ROS1-IL3 pIC50 [2]: 5.7
